Results on four compounds are retold here after PubChem BioAssay AID590 (National Center for Advancing Translational Sciences (NCATS), 2007).

The entries are a selection whose mix differs from that of the whole data set. Some tests of the compounds listed are not included; inactive here does not mean inactive elsewhere. Results filed as inconclusive are left out. Active and inactive are the calls of the source. No stated cut-off is given here; in the data, active means max dye-equivalent concentration above about 10 nM; inconclusive means mostly about 1.1 nM to 9.6 nM; inactive means weaker than that.

This assay can be described thus: qHTS Assay for Spectroscopic Profiling in A350 Spectral Region. Conditions: Compound autofluorescence, 340/450 nm, Alexa 350 dye-equivalents. The source says:
NIH Molecular Libraries Screening Centers Network [MLSCN]
NIH Chemical Genomics Center [NCGC]
Occasionally, the artifactual effect may originate from the compounds own spectral or other biophysical properties which generally tend to track its assay concentration. Pre-screening/profiling the library with respect to the compounds spectral properties should help one exclude false positives early on. While the most informative fluorescent profiling data set is obtained by performing a full excitation and emission scan of each well by using a monochromator-based plate reader, such an approach is practical only on a very limited scale as scanning each well requires long time. An alternative approach, applied here, is to perform plate reader scans using selected excitation and emission wavelength pairs to generate a multidimensional relational database that correlates compound concentration and the respective relative fluorescence intensity at a given wavelength set. A standard curve of Alexa 350 (A 350) present on each plate as six-point concentration series, was used to compute a normalized fluorescence response, termed dye-equivalent concentration, for each compound at each concentration.
NCGC Assay Protocol Summary:
100 mM Tris buffer, pH 8.0
The wells in columns 1 through 4 of a Kalypsys polypropylene 1536-well compound plate were filled with standard solutions of fluorophore corresponding to the spectral region of interest. Solutions of A 350 were placed in the following wells: I1, J1: 3 mM, I2, J2: 300 uM, I3, J3: 30 uM, I4, J4: zero (DMSO), K1, L1: 3 uM, K2, L2: […], K3, L3: 300 nM, K4, L4: zero (DMSO).
Six uL of buffer were dispensed to 1536-well Greiner black plates. Compounds and dye standards (23 nL) were transferred via Kalypsys PinTool. The plates were incubated for 15 min at room temperature, and then read on ViewLux (Perkin-Elmer) High-throughput CCD imager using 340 nm and 450 nm excitation and emission filter set.
Keywords: NIH Roadmap, MLSCN, MLI, MLSMR, qHTS, NCGC, A350, A-350, Fluorescent Profiling.
Background: qHTS replaces the single test concentration by a dilution series.
For `CN1CCC[C@H](OC(=O)[C@](O)(c2ccccc2)C2CCCC2)C1`, the result was inactive. In the case of `O=C(OC1CN2CCC1CC2)C(CO)(c1ccccc1)c1ccccc1` (centres undefined) it was “inactive”; in that of `CN1CC[C@H](OC(=O)[C@](O)(c2ccccc2)C2CCCC2)C1`, “inactive”; in that of `C=C(C)C#C[C@@](O)(C(=O)OC1CCN(C)CC1)c1ccccc1`, “inactive”.
